This test concerns the target neuromedin B receptor (UniProt P28336 1-390). As to the kind of experiment: competition with 125I-NMB.

Amino acid sequences for entries named in this document (tags omitted). A change or cut given only in a name is not applied to a line headed by its entry.
UniProt P28336: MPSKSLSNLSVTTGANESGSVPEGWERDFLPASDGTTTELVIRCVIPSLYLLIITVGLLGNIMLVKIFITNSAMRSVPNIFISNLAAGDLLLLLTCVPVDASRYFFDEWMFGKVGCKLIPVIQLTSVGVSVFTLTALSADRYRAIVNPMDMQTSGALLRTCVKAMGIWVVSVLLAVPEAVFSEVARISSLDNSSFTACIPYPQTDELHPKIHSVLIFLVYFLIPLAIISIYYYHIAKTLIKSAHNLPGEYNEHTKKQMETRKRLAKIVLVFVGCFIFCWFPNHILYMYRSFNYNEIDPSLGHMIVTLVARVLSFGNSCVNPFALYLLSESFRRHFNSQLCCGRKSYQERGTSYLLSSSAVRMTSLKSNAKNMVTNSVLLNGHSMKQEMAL

B1: neuromedin B, unlabeled ligand peptide of the radioligand binding assays (peptide)
peptide: YKIKVNPRGNLWATGHFM
The IC50 is the point on the concentration scale where inhibition reaches its midpoint. B1 came in with a concentration for half-maximal inhibition (IC50) of 1.18 nM. This lies in the single-digit nanomolar range.

Source of the values: PMC6422423 (2019).
